Assay results as given in publication PMC3392026.

Molecular target: protein kinase C (PKC), endogenous in COS-7 (monkey (endogenous in COS-7)) (UniProt P17252)
Test: co-IP

fold increase of Rac1 co-precipitated with PKC, H/R against normoxia: 4 fold
Substance: Rac1 (endogenous, COS-7) (from UniProt P63000 1-192) (natural protein)
